The target of the test is ALK (Homo sapiens (Human), UniProt Q9UM73). Description: Ambit kinase binding assay (ALK). To be noted: read-out: ALK inhibitory activities in the Ambit assay (IC50).

By UniProt entry, the sequences of proteins in these tests, tags left out. Residues count along the entry.
UniProt Q9UM73, 19-1620 limits assumed: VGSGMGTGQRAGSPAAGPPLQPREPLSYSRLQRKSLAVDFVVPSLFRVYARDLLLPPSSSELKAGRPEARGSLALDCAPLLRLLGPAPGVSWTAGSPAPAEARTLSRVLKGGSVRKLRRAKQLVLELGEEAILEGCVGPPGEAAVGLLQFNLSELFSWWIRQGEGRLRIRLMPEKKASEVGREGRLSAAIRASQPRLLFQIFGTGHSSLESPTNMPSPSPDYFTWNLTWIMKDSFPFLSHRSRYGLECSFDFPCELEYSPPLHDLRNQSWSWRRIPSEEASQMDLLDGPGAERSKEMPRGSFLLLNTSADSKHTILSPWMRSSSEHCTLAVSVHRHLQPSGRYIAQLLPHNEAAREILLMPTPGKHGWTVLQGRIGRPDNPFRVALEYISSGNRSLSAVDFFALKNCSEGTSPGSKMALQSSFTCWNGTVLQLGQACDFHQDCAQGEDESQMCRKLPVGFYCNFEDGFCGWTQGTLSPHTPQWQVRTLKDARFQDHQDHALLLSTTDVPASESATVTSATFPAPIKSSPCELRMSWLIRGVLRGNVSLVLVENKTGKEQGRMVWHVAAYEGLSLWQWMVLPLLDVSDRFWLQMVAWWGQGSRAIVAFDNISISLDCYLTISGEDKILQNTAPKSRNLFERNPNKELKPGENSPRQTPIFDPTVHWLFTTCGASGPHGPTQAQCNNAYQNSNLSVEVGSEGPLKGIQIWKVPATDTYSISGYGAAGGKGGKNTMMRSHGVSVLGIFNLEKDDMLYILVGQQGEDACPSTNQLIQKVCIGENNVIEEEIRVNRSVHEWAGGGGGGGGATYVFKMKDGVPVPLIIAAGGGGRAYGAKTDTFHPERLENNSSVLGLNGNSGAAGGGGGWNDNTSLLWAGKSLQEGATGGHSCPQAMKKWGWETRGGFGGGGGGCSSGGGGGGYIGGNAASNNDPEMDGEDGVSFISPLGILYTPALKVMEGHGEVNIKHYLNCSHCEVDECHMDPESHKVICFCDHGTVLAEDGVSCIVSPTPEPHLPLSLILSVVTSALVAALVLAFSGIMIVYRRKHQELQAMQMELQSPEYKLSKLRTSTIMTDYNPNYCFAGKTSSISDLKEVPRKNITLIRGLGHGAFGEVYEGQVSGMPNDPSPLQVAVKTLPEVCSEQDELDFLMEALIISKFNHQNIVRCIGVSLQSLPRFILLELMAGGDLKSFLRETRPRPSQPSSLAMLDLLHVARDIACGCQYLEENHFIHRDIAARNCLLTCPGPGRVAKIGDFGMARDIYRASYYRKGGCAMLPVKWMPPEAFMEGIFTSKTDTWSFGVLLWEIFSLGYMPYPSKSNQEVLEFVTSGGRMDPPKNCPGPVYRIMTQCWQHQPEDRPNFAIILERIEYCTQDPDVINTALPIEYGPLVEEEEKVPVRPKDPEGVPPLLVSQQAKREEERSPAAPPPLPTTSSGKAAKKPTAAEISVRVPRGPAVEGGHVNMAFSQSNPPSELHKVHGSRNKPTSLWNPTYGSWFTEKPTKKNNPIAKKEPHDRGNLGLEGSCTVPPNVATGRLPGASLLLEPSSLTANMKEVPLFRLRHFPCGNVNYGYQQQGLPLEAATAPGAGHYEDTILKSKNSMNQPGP

For the molecule `CNC(=O)c1ccc(NC(=O)c2cc(OC(C)c3c(Cl)ccc(F)c3Cl)c(N)nn2)cc1` (stereo not shown), the IC50 came out at 17 nM.

As usually defined, the IC50 is the point on the concentration scale where inhibition reaches its midpoint.

For the origin of these results see patent US9126947B2, “Substituted pyridazine carboxamide compounds” (Xcovery Holding Company LLC, priority 2010, dated 2015).
